Test: Properties of the amorphous phase
Type: physicochemical

Row | SMILES | chemical stability
1 | CCN(Cc1cc(C(F)(F)F)ccc1-c1cc(CC(=O)O)ccc1OC)C(=O)NCc1ccccc1 [Compound 1, [2′-(3-benzyl-1-ethyl-ureidomethyl)-6-methoxy-4′-trifluoromethyl-biphenyl-3-yl]-acetic acid] | chemically stable
2 | CCN(Cc1cc(C(F)(F)F)ccc1-c1cc(CC(=O)[O-])ccc1OC)C(=O)NCc1ccccc1.[Na+] [Compound 2, [2′-(3-benzyl-1-ethyl-ureidomethyl)-6-methoxy-4′-trifluoromethyl-biphenyl-3-yl]-acetic acid, sodium salt] | chemically stable
